# Permeability data for macrocyclic peptides

Values of Townsend et al. 2020, doi:10.26434/chemrxiv.13335941.v1, as listed in CycPeptMPDB.

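Lipid, pH, incubation time, direction and concentration are not recorded in the data file. The list need not hold all peptides of the study. Entries at the database's floor value (log10 P of -10) are not listed.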

PAMPA is the parallel artificial membrane permeability assay, which has no cells and reads passive diffusion. Permeability is given as log10 of P in cm/s; higher (less negative) is more permeable.

* CC(C)C[C@@H]1C(=O)N[C@H](CC(C)C)C(=O)N2CCC[C@@H]2C(=O)N(C)[C@H](CC(C)C)C(=O)N[C@@H](Cc2ccccc2)C(=O)N2CCC[C@@H]2C(=O)N(C)[C@H](C)C(=O)N1C: PAMPA -5.36 (log10 cm/s)
* CCCN1CC(=O)N[C@@H](CC(C)C)C(=O)N[C@@H](CC(C)C)C(=O)N2CCC[C@H]2C(=O)N[C@H](CC(C)C)C(=O)N[C@@H](Cc2ccccc2)C(=O)N2CCC[C@@H]2C1=O: PAMPA -6.09 (log10 cm/s)
* CC(C)C[C@@H]1NC(=O)[C@H](C)NC(=O)[C@@H]2CCCN2C(=O)[C@H](Cc2ccccc2)NC(=O)[C@@H](CC(C)C)NC(=O)[C@H]2CCCN2C(=O)[C@@H](CC(C)C)NC1=O: PAMPA -6.69 (log10 cm/s)
* CC(C)C[C@H]1C(=O)N(Cc2ccccc2)CC(=O)N2CCC[C@@H]2C(=O)N(C)[C@@H](CC(C)C)C(=O)N[C@@H](Cc2ccccc2)C(=O)N2CCC[C@@H]2C(=O)N[C@@H](Cc2ccccc2)CC(=O)N1C: PAMPA -5.37 (log10 cm/s)
* CC(C)C[C@H]1NC(=O)[C@@H](C)NC(=O)[C@H]2CCCN2C(=O)[C@H](Cc2ccccc2)NC(=O)[C@H](CC(C)C)N(C)C(=O)[C@H]2CCCN2C(=O)[C@H](CC(C)C)N(C)C1=O: PAMPA -5.86 (log10 cm/s)
* CCCN1CC(=O)N(C)[C@@H](CC(C)C)C(=O)N[C@H](CC(C)C)C(=O)N2CCC[C@@H]2C(=O)N[C@@H](CC(C)C)C(=O)N[C@@H](Cc2ccccc2)C(=O)N2CCC[C@H]2C1=O: PAMPA -6.77 (log10 cm/s)
* CC(C)C[C@H]1NC(=O)[C@@H](C)N(C)C(=O)[C@H]2CCCN2C(=O)[C@H](Cc2ccccc2)NC(=O)CN(Cc2ccccc2)C(=O)[C@@H]2CCCN2C(=O)CN(Cc2ccccc2)C1=O: PAMPA -6.11 (log10 cm/s)
* CC(C)C[C@H]1NC(=O)[C@@H]2CCCN2C(=O)CN(Cc2ccccc2)C(=O)[C@@H](CC(C)C)NC(=O)C[C@H](Cc2ccccc2)NC(=O)[C@H](Cc2ccccc2)NC1=O: PAMPA -5.70 (log10 cm/s)
* CCCN1CC(=O)N(Cc2ccccc2)CC(=O)N[C@@H](CC(C)C)C(=O)N2CCC[C@@H]2C(=O)N(C)[C@@H](CC(C)C)C(=O)N[C@@H](Cc2ccccc2)C(=O)N2CCC[C@H]2C1=O: PAMPA -5.26 (log10 cm/s)
* CC(C)C[C@@H]1NC(=O)C[C@H](Cc2ccccc2)NC(=O)[C@H](Cc2ccccc2)NC(=O)[C@H](CC(C)C)N(C)C(=O)[C@@H]2CCCN2C(=O)[C@H](CC(C)C)NC1=O: PAMPA -5.67 (log10 cm/s)
* CC(C)C[C@@H]1NC(=O)[C@@H]2CCCN2C(=O)CN(Cc2ccccc2)C(=O)[C@H](CC(C)C)N(C)C(=O)C[C@H](Cc2ccccc2)NC(=O)[C@@H]2CCCN2C(=O)[C@H](Cc2ccccc2)NC1=O: PAMPA -5.73 (log10 cm/s)
* CC(C)C[C@@H]1C(=O)N(C)[C@@H](CC(C)C)C(=O)N2CCC[C@@H]2C(=O)N(Cc2ccccc2)CC(=O)N[C@@H](Cc2ccccc2)C(=O)N2CCC[C@@H]2C(=O)N(C)[C@@H](C)C(=O)N1C: PAMPA -5.24 (log10 cm/s)
* CC(C)C[C@@H]1NC(=O)[C@@H](CC(C)C)N(C)C(=O)C[C@H](Cc2ccccc2)NC(=O)[C@@H]2CCCN2C(=O)[C@H](Cc2ccccc2)NC(=O)[C@@H](CC(C)C)N(C)C(=O)[C@H]2CCCN2C1=O: PAMPA -5.75 (log10 cm/s)
* CC(C)C[C@@H]1NC(=O)[C@H](C)N(C)C(=O)[C@@H]2CCCN2C(=O)[C@H](Cc2ccccc2)NC(=O)[C@H](CC(C)C)N(C)C(=O)[C@H]2CCCN2C(=O)CN(Cc2ccccc2)C1=O: PAMPA -5.32 (log10 cm/s)
* CCCN1CC(=O)N(Cc2ccccc2)CC(=O)N[C@@H](CC(C)C)C(=O)N2CCC[C@@H]2C(=O)N(C)[C@H](CC(C)C)C(=O)N[C@@H](Cc2ccccc2)C(=O)N2CCC[C@@H]2C1=O: PAMPA -5.23 (log10 cm/s)

Extract of 2 entries:

compound	PAMPA (log10 cm/s)
CC(C)C[C@@H]1NC(=O)[C@H](C)N(C)C(=O)[C@@H]2CCCN2C(=O)[C@H](Cc2ccccc2)NC(=O)[C@H](CC(C)C)N(C)C(=O)[C@H]2CCCN2C(=O)CN(Cc2ccccc2)C1=O	-5.32
CCCN1CC(=O)N[C@@H](CC(C)C)C(=O)N[C@@H](CC(C)C)C(=O)N2CCC[C@H]2C(=O)N[C@H](CC(C)C)C(=O)N[C@@H](Cc2ccccc2)C(=O)N2CCC[C@@H]2C1=O	-6.09